Test results reported in patent US20110009335A1, “Anticancer Treatments” (priority 2008, published 2011).

Tested on: LOX-IMVI human melanoma xenograft
Assay: Aplidine with sorafenib, LOX-IMVI xenograft in athymic nude mice (Example 7)
Format: in vivo
Details: G4: sorafenib 30 mg/kg/day PO
Source text: Female athymic nude mice (Harlan Sprague Dawley, Madison, Wis.) were utilized for all experiments. Mice were implanted with a tumor fragment when mice were 6-8 weeks of age. Animals were housed in ventilated rack caging with food and water ad libitum. The mice were acclimated for at least 5 days prior to tumor implantation.
The tumor model used in this study was LOX-IMVI, which is a human melanoma cell line obtained from the Department of Developmental Therapeutics, National Cancer Institute (NCI). Animals were implanted subcutaneously (SC) on the right flank, using a 13 gauge trocar, with 2 mm^3 of tissue tumor fragments of LOX-IMVI, from an in vivo transplantable line passage 1, using sterile Earle's Balanced Salt solution as a wetting agent.
Tumor measurements were determined as disclosed in Example 1. […]
The treatment of LOX-IMVI-tumor-bearing mice was initiated on DPI (Day Post Implantation) 11. Body weights were recorded on treatment days and when tumor sizes were measured. […]
Tumor size measurements were recorded twice weekly from the treatment initiation until the termination of the study.
Mean, standard deviation and standard error of the mean were determined for tumor volume for all animal groups at all assessments. […]

In the case of `CNC(=O)c1cc(Oc2ccc(NC(=O)Nc3ccc(Cl)c(C(F)(F)F)c3)cc2)ccn1` [sorafenib], the “% T/C on day 11” value is reported as 102.1%.
